The values below come from US7943618B2, “Btk protein kinase inhibitors” (Roche Palo Alto LLC, priority 2007, dated 2011).

Sequences of proteins named here, by UniProt entry; tags and fusion partners are left off.
UniProt Q06187, whole entry: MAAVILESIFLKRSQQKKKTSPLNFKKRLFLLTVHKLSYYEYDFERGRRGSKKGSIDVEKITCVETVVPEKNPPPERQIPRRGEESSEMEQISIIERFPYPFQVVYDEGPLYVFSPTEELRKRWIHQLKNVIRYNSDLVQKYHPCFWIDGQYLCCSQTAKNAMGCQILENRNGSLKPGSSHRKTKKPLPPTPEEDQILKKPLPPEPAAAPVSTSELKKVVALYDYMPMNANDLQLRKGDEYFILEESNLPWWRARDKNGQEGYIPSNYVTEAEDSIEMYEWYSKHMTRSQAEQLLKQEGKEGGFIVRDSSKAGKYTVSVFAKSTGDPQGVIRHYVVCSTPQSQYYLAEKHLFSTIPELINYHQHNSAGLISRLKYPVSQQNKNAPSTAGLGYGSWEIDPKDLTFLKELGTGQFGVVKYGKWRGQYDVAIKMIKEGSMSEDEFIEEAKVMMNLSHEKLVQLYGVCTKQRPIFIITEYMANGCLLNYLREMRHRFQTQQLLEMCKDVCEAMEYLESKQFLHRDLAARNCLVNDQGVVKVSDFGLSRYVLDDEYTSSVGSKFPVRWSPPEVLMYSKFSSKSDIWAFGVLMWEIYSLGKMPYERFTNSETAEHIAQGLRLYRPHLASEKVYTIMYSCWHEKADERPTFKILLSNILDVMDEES

In the test the target is Btk enzyme (His-tagged, full-length) (Homo sapiens, UniProt Q06187). Briefly: Bruton's Tyrosine Kinase (Btk) Inhibition Assay (33P filtration capture). It counts as biochemical. The note with it: Bruton's tyrosine kinase Assay (Example 34); Table I pyridazinones; 100 μM ATP.
As a reminder, the IC50 is the concentration needed to halve the response being measured. Low readings indicate inhibition by little substance, high ones a need for much substance. `Cn1nc(-c2cccc(CC(=O)N3CC(OC(C)(C)C)C3)c2)cc(Nc2ccc(C(=O)N3CCOCC3)cn2)c1=O` yielded an IC50 of 138 nM.

`Cc1c(NC(=O)c2ccc(C(C)(C)C)cc2)cccc1-c1cc(Nc2ccc(C(=O)N3CCC(O)CC3)cc2)c(=O)n(C)n1` registered an IC50 of 45 nM.

Turning to `Cn1nc(-c2cccc(CC(=O)N3CCN(C(C)(C)C)CC3)c2)cc(Nc2ccc(C(=O)N3CCOCC3)cn2)c1=O`, the IC50 came to 33500 nM.
